# CycPeptMPDB entries from one study

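The data file gives no further conditions (lipid, pH, time, direction or concentration), and values from different papers need not be comparable. The list need not hold all peptides of the study. Peptides that the database sets to -10, its floor, are left out.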

PAMPA is the parallel artificial membrane permeability assay, which has no cells and reads passive diffusion.
Permeability is in 10^-6 cm/s, converted from the database's log10 values; higher is more permeable.

* CC(=O)N1CCC[C@H]1C(=O)N(C)[C@@H](CC(C)C)C(=O)N[C@@H]1C(=O)N[C@@H](CC(C)C)C(=O)N(C)[C@H](CC(C)C)C(=O)N(C)[C@H](CC(C)C)C(=O)N[C@H](C)C(=O)N[C@H](CC(C)C)C(=O)N2CCC[C@@H]2C(=O)O[C@@H]1C: PAMPA 0.14 × 10^-6 cm/s
* CC(=O)N1CCC[C@H]1C(=O)N[C@@H]1C(=O)N[C@H](CC(C)C)C(=O)N(C)[C@H](CC(C)C)C(=O)N(C)[C@@H](CC(C)C)C(=O)N(C)[C@H](CC(C)C)C(=O)N(C)[C@H](C)C(=O)N[C@@H](CC(C)C)C(=O)N2CCC[C@@H]2C(=O)O[C@@H]1C: PAMPA 11 × 10^-6 cm/s
* CC(=O)N1CCC[C@H]1C(=O)N(C)[C@@H](CC(C)C)C(=O)N[C@@H]1C(=O)N[C@H](CC(C)C)C(=O)N[C@@H](CC(C)C)C(=O)N(C)[C@@H](CC(C)C)C(=O)N(C)[C@@H](C)C(=O)N[C@H](CC(C)C)C(=O)N2CCC[C@H]2C(=O)O[C@@H]1C: PAMPA 3.3 × 10^-6 cm/s
* CC(=O)N[C@@H]1C(=O)N2CCC[C@H]2C(=O)N(C)[C@H](CC(C)C)C(=O)N[C@@H](CC(C)C)C(=O)N[C@H](CC(C)C)C(=O)N[C@H](CC(C)C)C(=O)N(C)[C@H](C)C(=O)N[C@@H](CC(C)C)C(=O)N2CCC[C@@H]2C(=O)O[C@@H]1C: PAMPA 0.083 × 10^-6 cm/s
* CC(=O)N1CCC[C@@H]1C(=O)N(C)[C@@H](CC(C)C)C(=O)N[C@@H]1C(=O)N[C@@H](CC(C)C)C(=O)N[C@@H](CC(C)C)C(=O)N(C)[C@H](CC(C)C)C(=O)N[C@@H](C)C(=O)N[C@@H](CC(C)C)C(=O)N2CCC[C@H]2C(=O)O[C@@H]1C: PAMPA 1.1 × 10^-6 cm/s
* CC(=O)N1CCC[C@H]1C(=O)N(C)[C@H](CC(C)C)C(=O)N[C@@H]1C(=O)N(C)[C@@H](CC(C)C)C(=O)N(C)[C@@H](CC(C)C)C(=O)N(C)[C@H](CC(C)C)C(=O)N(C)[C@H](C)C(=O)N[C@H](CC(C)C)C(=O)N2CCC[C@H]2C(=O)O[C@@H]1C: PAMPA 3.6 × 10^-6 cm/s
* CC(=O)N1CCC[C@H]1C(=O)N(C)[C@@H](CC(C)C)C(=O)N[C@@H]1C(=O)N(C)[C@H](CC(C)C)C(=O)N[C@H](CC(C)C)C(=O)N(C)[C@@H](CC(C)C)C(=O)N(C)[C@@H](C)C(=O)N[C@H](CC(C)C)C(=O)N2CCC[C@@H]2C(=O)O[C@@H]1C: PAMPA 1.7 × 10^-6 cm/s
* CC(=O)N1CCC[C@@H]1C(=O)N(C)[C@@H](CC(C)C)C(=O)N[C@@H]1C(=O)N[C@@H](CC(C)C)C(=O)N(C)[C@H](CC(C)C)C(=O)N[C@H](CC(C)C)C(=O)N[C@@H](C)C(=O)N[C@@H](CC(C)C)C(=O)N2CCC[C@H]2C(=O)O[C@@H]1C: PAMPA 0.32 × 10^-6 cm/s
* CC(=O)N1CCC[C@H]1C(=O)N(C)[C@@H](CC(C)C)C(=O)N[C@@H]1C(=O)N(C)[C@@H](CC(C)C)C(=O)N(C)[C@@H](CC(C)C)C(=O)N(C)[C@H](CC(C)C)C(=O)N(C)[C@H](C)C(=O)N[C@H](CC(C)C)C(=O)N2CCC[C@H]2C(=O)O[C@@H]1C: PAMPA 0.89 × 10^-6 cm/s
* CC(=O)N1CCC[C@H]1C(=O)N(C)[C@H](CC(C)C)C(=O)N[C@@H]1C(=O)N(C)[C@@H](CC(C)C)C(=O)N(C)[C@H](CC(C)C)C(=O)N(C)[C@@H](CC(C)C)C(=O)N(C)[C@H](C)C(=O)N[C@@H](CC(C)C)C(=O)N2CCC[C@H]2C(=O)O[C@@H]1C: PAMPA 4.9 × 10^-6 cm/s
* CC(=O)N1CCC[C@H]1C(=O)N(C)[C@@H](CC(C)C)C(=O)N[C@@H]1C(=O)N[C@H](CC(C)C)C(=O)N(C)[C@@H](CC(C)C)C(=O)N[C@H](CC(C)C)C(=O)N(C)[C@H](C)C(=O)N[C@@H](CC(C)C)C(=O)N2CCC[C@@H]2C(=O)O[C@@H]1C: PAMPA 9.3 × 10^-6 cm/s
* CC(=O)N1CCC[C@@H]1C(=O)N(C)[C@@H](CC(C)C)C(=O)N[C@@H]1C(=O)N(C)[C@H](CC(C)C)C(=O)N(C)[C@@H](CC(C)C)C(=O)N(C)[C@H](CC(C)C)C(=O)N(C)[C@H](C)C(=O)N[C@@H](CC(C)C)C(=O)N2CCC[C@H]2C(=O)O[C@@H]1C: PAMPA 3.6 × 10^-6 cm/s
* CC(=O)N1CCC[C@H]1C(=O)N(C)[C@H](CC(C)C)C(=O)N[C@@H]1C(=O)N[C@H](CC(C)C)C(=O)N(C)[C@@H](CC(C)C)C(=O)N[C@@H](CC(C)C)C(=O)N(C)[C@@H](C)C(=O)N[C@H](CC(C)C)C(=O)N2CCC[C@@H]2C(=O)O[C@@H]1C: PAMPA 8.3 × 10^-6 cm/s

The 2 highest values of PAMPA among the entries above:

compound	PAMPA (10^-6 cm/s)
CC(=O)N1CCC[C@H]1C(=O)N[C@@H]1C(=O)N[C@H](CC(C)C)C(=O)N(C)[C@H](CC(C)C)C(=O)N(C)[C@@H](CC(C)C)C(=O)N(C)[C@H](CC(C)C)C(=O)N(C)[C@H](C)C(=O)N[C@@H](CC(C)C)C(=O)N2CCC[C@@H]2C(=O)O[C@@H]1C	11
CC(=O)N1CCC[C@H]1C(=O)N(C)[C@@H](CC(C)C)C(=O)N[C@@H]1C(=O)N[C@H](CC(C)C)C(=O)N(C)[C@@H](CC(C)C)C(=O)N[C@H](CC(C)C)C(=O)N(C)[C@H](C)C(=O)N[C@@H](CC(C)C)C(=O)N2CCC[C@@H]2C(=O)O[C@@H]1C	9.3

Source: CycPeptMPDB (Li et al. 2023), which took these values from Kelly et al. 2021, doi:10.1021/jacs.0c06115.